For 1 molecule, Ki results are on record in ChEMBL document CHEMBL3297649, “Structure-activity relationships of privileged structures lead to the discovery of novel biased ligands at the dopamine D₂ receptor” (J Med Chem, 2014).

By UniProt entry, the sequences of proteins in these tests, tags left out.
UniProt P14416, whole entry: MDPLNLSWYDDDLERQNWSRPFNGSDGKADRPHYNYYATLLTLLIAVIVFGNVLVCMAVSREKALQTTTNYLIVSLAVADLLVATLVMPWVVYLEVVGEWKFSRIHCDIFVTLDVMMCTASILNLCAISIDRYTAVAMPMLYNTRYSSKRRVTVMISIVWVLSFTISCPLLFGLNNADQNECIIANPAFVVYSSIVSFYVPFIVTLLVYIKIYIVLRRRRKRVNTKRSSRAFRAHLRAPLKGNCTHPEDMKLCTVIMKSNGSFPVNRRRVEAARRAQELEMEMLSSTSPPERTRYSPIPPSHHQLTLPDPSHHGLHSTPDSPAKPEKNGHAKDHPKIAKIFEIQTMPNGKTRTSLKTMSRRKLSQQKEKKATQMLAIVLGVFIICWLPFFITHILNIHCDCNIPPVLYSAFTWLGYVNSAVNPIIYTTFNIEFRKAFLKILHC

In the test the target is D(2) dopamine receptor (Homo sapiens, UniProt P14416). Briefly: Displacement of [3H]spiperone from human D2L receptor expressed in FlpIn CHO cell membrane after 3 hrs by liquid scintillation counting analysis. The format is cell membranes. In outline: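 Membranes from D2L FlpIn CHO cells, 3 μg, with 0.05 nM [3H]spiperone, 100 μM GppNHp and varied competitor in 20 mM HEPES, 100 mM NaCl, 6 mM MgCl2, 1 mM EGTA, 1 mM EDTA, pH 7.4, 3 h at 37 °C. Filtered on GF/B, washed in ice-cold saline, counted by liquid scintillation. Three experiments in duplicate.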
A general note: In a radioligand displacement assay an active substance lowers the binding of a labelled ligand.

As usually defined, the Ki is a measure of affinity in units of concentration, obtained from inhibition or displacement. Consider `COc1ccccc1N1CCN(CCNC(=O)OC(C)(C)C)CC1`, for which the Ki is 0.171 µM.
